Ab-14 light chain CDR variants: yeast mating affinities

The target is the same throughout: PDVDLGDISGINAS, from the HR2 region of SARS-CoV-2 spike.

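The starting antibody came from a phage panning campaign against this peptide. This is the validation round: designs drawn from the data on random variants, tested in the same kind of assay. Several design methods are mixed in this list. Affinity was read by AlphaSeq, a pooled yeast mating assay with surface-displayed partners. Mating (16 h, 30 °C) was followed by selection of diploids and sequencing of their barcodes. Each replicate has its own calibration line, from reference interactions of the BCL2 family. Mating was done six times.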

Each scFv is VH, a 15-residue (Gly4Ser)3 linker, VL, as in the parent Ab-14, and differs from it in the CDRs of the light chain only.
VH: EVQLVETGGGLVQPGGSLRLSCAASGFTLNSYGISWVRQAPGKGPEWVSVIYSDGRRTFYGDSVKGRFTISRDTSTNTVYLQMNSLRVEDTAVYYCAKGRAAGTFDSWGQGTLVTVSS
VL: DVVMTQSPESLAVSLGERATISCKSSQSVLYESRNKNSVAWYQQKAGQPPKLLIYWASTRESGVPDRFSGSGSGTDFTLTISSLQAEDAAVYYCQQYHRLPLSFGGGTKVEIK

Changes read parent residue, position, new residue, counted from the first residue of the VL shown. This list holds designs with at most six substitutions. Each Kd is an estimate from the mating assay, the geometric mean of the replicates in which the pair was seen; lower is stronger. "nd" marks a missing value. The strain was present, yet no cells mated with the target were sequenced in any replicate, which points to weak or no binding. Nonspecific signal, from three strains lacking the peptide, appeared in 4% of pairings of all light chain designs, centred on 430 nM (5% of these signals below 38 nM); values are not corrected for it. For each scFv, signals with the empty controls are counted beside the result. In the paper, a design with two or fewer of six values counts as a poor binder. Values of this round are not directly comparable with the first-round values of the same sequences. Of ten entries with the parent sequence, four were seen in most replicates (averages 2.2 nM to 240 nM), three in one and three in none, so single entries are noisy.

changes,Kd (apparent),replicates with signal,signal with controls
S25M K36S W56D,2.2 nM,6 of 6,2 of 18
Q27L V29K,140 nM,3 of 6,0 of 18
S26L Q27W R34N S38P W56H S62D,46 nM,6 of 6,1 of 18
Q27E N37G H98A,98 nM,4 of 6,1 of 18
S25L S26E V29E W56N E61M,800 pM,6 of 6,0 of 18
S25V Q27E Y31A W56K E61A,2.9 nM,6 of 6,0 of 18
S25L W56E S58E,850 pM,6 of 6,1 of 18
S25V S33E S38N W56N,7.6 nM,5 of 6,0 of 18
S26D,nd,0 of 6,0 of 18
R34D W56D,1.8 nM,6 of 6,1 of 18
S26T S58D,86 nM,2 of 6,0 of 18
S25V V29N W56N Q96S,1.2 nM,6 of 6,2 of 18
L102I S103R,7.6 nM,6 of 6,0 of 18
Q27W,nd,0 of 6,0 of 18
S25L S26Y W56E T59Q,470 pM,6 of 6,1 of 18
L30S Y31M W56D,1.8 nM,6 of 6,0 of 18
W56E S62P R99T P101L,9.0 nM,5 of 6,0 of 18
S25L V29S W56N S62Q,1.3 nM,6 of 6,1 of 18
S25F V29E W56N,740 pM,6 of 6,0 of 18
K24I S25L V29W W56N,1.0 nM,6 of 6,2 of 18
S25L S26P W56S,1.0 nM,6 of 6,0 of 18
S25Y Q27I V29Y Y31E W56E,1.0 nM,6 of 6,2 of 18
S25L V29H W56E E61C,1.5 nM,6 of 6,2 of 18
S25L V29W W56N T59Q S62M,1.0 nM,6 of 6,0 of 18
S25D N35E H98G,100 nM,3 of 6,1 of 18
S25M Y31M W56A S103P,nd,0 of 6,0 of 18
S25A Q96W,nd,0 of 6,0 of 18
Y31D R34S N37G S62K Q96T L100P,40 nM,6 of 6,0 of 18
E32T N35C N37A,nd,0 of 6,0 of 18
Y31N K36S W56D,3.4 nM,6 of 6,1 of 18
S25M R34D E61I,14 nM,6 of 6,0 of 18
S25F V29G N35T K36S S38R W56N,4.1 nM,6 of 6,0 of 18
S26L L30V W56H S62D,2.2 nM,6 of 6,0 of 18
S28N A57D,95 nM,6 of 6,1 of 18
S25V V29N S38N W56D,410 pM,6 of 6,1 of 18
S25L K36S W56N E61L,850 pM,6 of 6,1 of 18
S25I L30D W56D,3.2 nM,6 of 6,0 of 18
S25L S26P W56D S62D,280 pM,6 of 6,1 of 18
S25L W56Q S62D R99Y,800 pM,6 of 6,0 of 18
Q27I V29D N35M W56E,1.0 nM,6 of 6,3 of 18
K24H Q27P L30V W56N,1.4 nM,6 of 6,3 of 18
L30P Y31K S38N W56D R99G,17 nM,6 of 6,0 of 18
S25L L30M Y31G E32W S33M W56N,820 pM,6 of 6,1 of 18
S25L V29E W56N S58N,4.8 nM,6 of 6,0 of 18
S25L V29Y L30H N37K W56G,6.8 nM,6 of 6,1 of 18
S25L S26Y W56E,1.2 nM,6 of 6,1 of 18
S26M Y31D K36C W56A,5.4 nM,6 of 6,1 of 18
Q27W Y31G W56D E61S,730 pM,6 of 6,0 of 18
S25V S26Q S62C,18 nM,6 of 6,0 of 18
S25L S26Q V29K W56N T59Q,2.0 nM,6 of 6,2 of 18
Y31N,350 nM,6 of 6,1 of 18
E61D R99V,45 nM,3 of 6,1 of 18
Q27G V29Q L30Q S33D W56H T59Q,2.7 nM,6 of 6,0 of 18
L30P W56N E61M,3.6 nM,6 of 6,0 of 18
S25D N35S,370 nM,2 of 6,1 of 18
S25F V29W W56N H98R,2.7 nM,6 of 6,1 of 18
S25L L30P W56M,1.5 nM,6 of 6,5 of 18
K36E S38A W56L R99W,31 nM,3 of 6,0 of 18
S26D V29D S38G,32 nM,2 of 6,0 of 18
Y31A W56N H98A S103Y,23 nM,6 of 6,0 of 18
S25V S33Q W56E E61C,1.0 nM,6 of 6,3 of 18
S25Y Q27T V29E Y31E T59H S62E,3.8 nM,6 of 6,1 of 18
S25L V29W N35M W56N E61M,1.7 nM,6 of 6,0 of 18
S25I W56N T59Q E61M,630 pM,6 of 6,3 of 18

Excerpt, the final 4 entries:

| changes | Kd (apparent) | replicates with signal | signal with controls |
|---|---|---|---|
| S25V S33Q W56E E61C | 1.0 nM | 6 of 6 | 3 of 18 |
| S25Y Q27T V29E Y31E T59H S62E | 3.8 nM | 6 of 6 | 1 of 18 |
| S25L V29W N35M W56N E61M | 1.7 nM | 6 of 6 | 0 of 18 |
| S25I W56N T59Q E61M | 630 pM | 6 of 6 | 3 of 18 |

Data: MIT Lincoln Laboratory AlphaSeq set, Li et al. 2023, doi:10.1038/s41467-023-39022-2, as distributed in FLAb.